In patent US8765173B2, “Drug delivery system for administration of a water soluble, cationic and amphiphilic pharmaceutically active substance” (Ardenia Investments, Ltd., priority 2007, dated 2014):

System: SPF Wistar rats of the strain HanTac:WH (GALAS)
Settings: 6 mg/kg intravenous once weekly

COc1cccc2c1C(=O)c1c(O)c3c(c(O)c1C2=O)C[C@@](O)(C(=O)CO)C[C@@H]3O[C@H]1C[C@H](N)[C@H](O)[C@H](C)O1 [Doxorubicin]
fluid-filled abdomens: only observed in the positive control Group 2
